Columns and labels:
Fibrosarcoma cells = conditions: in BME, 37° C., 5% CO2, 30 minutes, washed with PBS
[1] = Fluorescence titration with Zn^+2; conditions: ethanolic solution 1 mM
[2] = Fluorescence titration with Ca^+2; conditions: ethanolic solution 1 mM
[3] = Fluorescence titration with Mg^+2; conditions: ethanolic solution 1 mM
[4] = Fluorescence titration with VO^+2
[5] = Fluorescence titration with Cu^+2
[6] = Fluorescence titration with Ni^+2; conditions: ethanolic solution 1 mM, first addition
[7] = Fluorescence titration with Co^+2; conditions: ethanolic solution 1 mM, first addition
[8] = Fluorescence titration with Mn^+2; conditions: ethanolic solution 1 mM, first addition
[9] = Fluorescence titration with SrCl2; conditions: ethanolic solution 1 mM, after addition of 1 equivalent SrCl2
[10] = system: Zn^+2 in fibrosarcoma cells; assay: Imaging of Zn^+2 in fibrosarcoma cells; assay type: cell-based
Slices of rat brain = assay: Penetration into rat brain slices, fluorescence microscopy; conditions: slices 8-30 μm, in BME, one hour, washed with PBS

diethyl 4-(1,3-diphenyl-5-pyrazolyl) phenoxy methylphosphonate
uptake into cells (Fibrosarcoma cells): taken up in the cytoplasm within the fibrosarcoma cells

diethyl 8-quinolyloxy methylphosphonate
Zn^+2 concentration that can be sensed (down to) [1]: 60 ηM | increase in fluorescence intensity (fold, in words) ([1]; one equivalent of Zn^+2): four-fold increase | effect of Ca^+2 on fluorescent intensity [2]: no significant effect | effect of Mg^+2 on fluorescent intensity [3]: no significant effect | uptake into cells (Fibrosarcoma cells): taken up in the cytoplasm within the fibrosarcoma cells | vanadyl concentration that can be sensed (down to) [4]: 10^−6 M | VO^+2 equivalents at which the new peak at 500 nm plateaus ([4]; ethanolic solution 1 mM): 0.5 eq | effect of VO^+2 on emission intensity at the 400 nm peak ([4]; ethanolic solution 1 mM): drcrease in the emission intensity | cupric concentration that can be sensed (down to) [5]: 10^−6 M | Cu^+2 equivalents at which the new peak at 500 nm plateaus ([5]; ethanolic solution 1 mM): 0.4 eq | effect of Cu^+2 on intensity of the peaks at 400 and 575 nm ([5]; ethanolic solution 1 mM): decrease in intensity | effect of Ni^+2 on emission intensity [6]: large decrease in emission intensity | effect of Co^+2 on emission intensity [7]: large decrease in emission intensity | effect of Mn^+2 on emission intensity [8]: large decrease in emission intensity | increase in fluorescence intensity [9]: 50%

diethyl (9-anthracyl)-N-2,4-dichlorobenzylamine-methylphosphonate
fluorescence intensity in cells with added zinc chloride solution ([10]; 100 μl, 50 μM in BME, 0.5 up to 5 μl of added zinc solution, 37° C., 5% carbon dioxide): progressive, significant and reproducible increases in fluorescence intensity | fluorescence intensity within the cells with increased amounts of Zn^+2 ([10]; BME solutions): progressive increase in fluorescence intensity within the cells | uptake into cells (Fibrosarcoma cells): taken up in the cytoplasm within the fibrosarcoma cells | penetration of brain cell types and regions (Slices of rat brain): went into neurons and glial cells

Source: patent US7629379B2, “Substituted phosphonate fluorescent sensors and use thereof” (Queen Mary & Westfield College, priority 2003, dated 2009)
